Data as given in ChEMBL document CHEMBL1137924, “Carbonic anhydrase inhibitors. Inhibition of the beta-class enzyme from the methanoarchaeon Methanobacterium thermoautotrophicum (Cab) with anions” (Bioorg Med Chem Lett, 2004).

Experiments:
[1] = target: T1, Carbonic anhydrase (Methanosarcina thermophila, UniProt P40881); type: functional
T1 sequence (P40881 whole entry): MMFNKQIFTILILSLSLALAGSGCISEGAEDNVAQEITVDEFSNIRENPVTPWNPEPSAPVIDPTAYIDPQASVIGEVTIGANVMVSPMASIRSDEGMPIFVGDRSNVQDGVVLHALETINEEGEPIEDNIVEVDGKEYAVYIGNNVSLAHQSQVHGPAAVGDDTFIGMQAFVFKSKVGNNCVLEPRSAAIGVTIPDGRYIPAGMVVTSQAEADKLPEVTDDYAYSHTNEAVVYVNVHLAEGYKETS

[2] = target: T2, Carbonic anhydrase (Methanobacterium thermoautotrophicum, UniProt Q50565); parameters: species or system Methanothermobacter thermautotrophicus str. Delta H
T2 sequence (Q50565 whole entry): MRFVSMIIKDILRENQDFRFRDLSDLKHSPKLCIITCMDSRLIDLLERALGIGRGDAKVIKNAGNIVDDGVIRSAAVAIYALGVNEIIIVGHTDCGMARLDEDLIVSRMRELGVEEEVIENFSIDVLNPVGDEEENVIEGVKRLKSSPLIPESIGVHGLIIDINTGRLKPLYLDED

| Compound | Ki [1] [mM] | Ki [2] [mM] |
| --- | --- | --- |
| F [FLUORIDE ION] | > 200 | – |
| O=S(=O)(O)O [SULFURIC ACID] | – | 45.1 |
| N#CS [THIOCYANIC ACID] | – | 0.52 |
